Measurements from BindingDB's records for 18989912, “Novel acetylcholine and carbamoylcholine analogues: development of a functionally selective alpha4beta2 nicotinic acetylcholine receptor agonist” (2009).

Target: Neuronal acetylcholine receptor subunit alpha-7 (Rattus norvegicus, UniProt Q05941)

CNC(=O)OCCC(C)N(C)C (stereo unspecified)
pKi: < 3.00

pKi: −log10 of the molar value.
